The results in this text go back to patent US11021445B2, “Carboxylic acid derivative as AT2R receptor antagonist” (SHANDONG DANHONG PHARMACEUTICAL CO., LTD., priority 2017, dated 2021).

The chains behind the UniProt entries cited, without tags or fusion partners.
UniProt P50052, whole entry: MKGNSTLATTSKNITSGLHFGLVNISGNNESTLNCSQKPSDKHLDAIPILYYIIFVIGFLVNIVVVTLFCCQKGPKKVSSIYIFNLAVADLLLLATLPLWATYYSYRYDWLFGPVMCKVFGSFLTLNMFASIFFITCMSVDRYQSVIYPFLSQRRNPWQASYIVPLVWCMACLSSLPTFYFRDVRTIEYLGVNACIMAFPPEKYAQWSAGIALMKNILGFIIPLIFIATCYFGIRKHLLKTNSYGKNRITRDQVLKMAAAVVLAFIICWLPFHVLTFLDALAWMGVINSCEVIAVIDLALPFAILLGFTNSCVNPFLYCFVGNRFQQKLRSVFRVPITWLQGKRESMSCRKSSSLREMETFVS
UniProt P10635, whole entry: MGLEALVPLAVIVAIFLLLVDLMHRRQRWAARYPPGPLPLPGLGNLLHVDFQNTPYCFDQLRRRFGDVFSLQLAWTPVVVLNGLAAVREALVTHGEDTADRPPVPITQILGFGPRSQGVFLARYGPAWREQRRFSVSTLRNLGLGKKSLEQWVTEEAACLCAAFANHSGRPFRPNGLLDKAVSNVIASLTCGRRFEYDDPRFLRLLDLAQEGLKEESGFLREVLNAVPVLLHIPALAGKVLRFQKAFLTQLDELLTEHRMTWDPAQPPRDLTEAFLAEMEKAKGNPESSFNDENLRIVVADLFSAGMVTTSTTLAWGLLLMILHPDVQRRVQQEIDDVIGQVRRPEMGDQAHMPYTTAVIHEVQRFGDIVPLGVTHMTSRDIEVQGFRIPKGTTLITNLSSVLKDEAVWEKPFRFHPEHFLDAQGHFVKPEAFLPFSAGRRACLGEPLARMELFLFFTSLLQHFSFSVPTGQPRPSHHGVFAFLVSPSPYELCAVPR
UniProt P33261, whole entry: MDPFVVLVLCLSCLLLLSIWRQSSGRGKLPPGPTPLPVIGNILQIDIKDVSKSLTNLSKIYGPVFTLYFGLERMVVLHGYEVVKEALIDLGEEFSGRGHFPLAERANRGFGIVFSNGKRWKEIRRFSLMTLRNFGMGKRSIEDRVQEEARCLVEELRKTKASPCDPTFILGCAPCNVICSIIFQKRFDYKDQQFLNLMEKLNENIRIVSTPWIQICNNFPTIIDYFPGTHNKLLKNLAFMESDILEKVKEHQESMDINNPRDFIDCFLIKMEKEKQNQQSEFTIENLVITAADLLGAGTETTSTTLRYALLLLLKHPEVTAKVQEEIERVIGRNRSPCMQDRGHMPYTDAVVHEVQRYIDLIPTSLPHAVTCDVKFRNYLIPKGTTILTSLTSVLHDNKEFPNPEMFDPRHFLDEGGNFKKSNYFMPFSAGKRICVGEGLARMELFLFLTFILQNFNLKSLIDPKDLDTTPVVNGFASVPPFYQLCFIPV
UniProt P05177, whole entry: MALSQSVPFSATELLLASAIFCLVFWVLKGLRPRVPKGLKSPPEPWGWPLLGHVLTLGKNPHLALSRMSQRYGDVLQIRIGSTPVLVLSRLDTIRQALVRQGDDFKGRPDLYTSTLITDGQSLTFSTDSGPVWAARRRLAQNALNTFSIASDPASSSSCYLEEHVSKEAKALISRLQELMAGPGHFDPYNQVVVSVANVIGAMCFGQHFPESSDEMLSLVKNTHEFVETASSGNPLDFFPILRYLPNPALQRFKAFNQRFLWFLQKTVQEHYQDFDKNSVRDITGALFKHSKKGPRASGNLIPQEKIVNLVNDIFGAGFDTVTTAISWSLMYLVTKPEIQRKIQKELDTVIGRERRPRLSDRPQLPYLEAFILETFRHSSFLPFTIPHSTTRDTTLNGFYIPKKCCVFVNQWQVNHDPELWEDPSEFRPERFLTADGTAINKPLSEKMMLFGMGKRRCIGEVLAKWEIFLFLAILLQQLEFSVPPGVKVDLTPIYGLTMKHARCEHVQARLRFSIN
UniProt P08684, whole entry: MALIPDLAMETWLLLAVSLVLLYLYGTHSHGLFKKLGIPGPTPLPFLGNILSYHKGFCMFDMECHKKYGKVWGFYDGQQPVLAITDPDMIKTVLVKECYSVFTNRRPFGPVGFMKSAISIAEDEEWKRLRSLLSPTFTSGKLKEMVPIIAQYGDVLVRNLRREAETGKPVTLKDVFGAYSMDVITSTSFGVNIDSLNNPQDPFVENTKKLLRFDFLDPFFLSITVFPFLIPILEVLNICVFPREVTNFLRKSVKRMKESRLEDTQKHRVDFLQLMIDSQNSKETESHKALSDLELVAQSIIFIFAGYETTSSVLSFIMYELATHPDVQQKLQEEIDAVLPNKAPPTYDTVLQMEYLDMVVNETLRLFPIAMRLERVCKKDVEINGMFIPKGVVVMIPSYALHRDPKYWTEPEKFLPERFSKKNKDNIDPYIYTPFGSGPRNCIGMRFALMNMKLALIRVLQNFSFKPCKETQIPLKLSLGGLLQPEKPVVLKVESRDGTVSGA
UniProt P11712, whole entry: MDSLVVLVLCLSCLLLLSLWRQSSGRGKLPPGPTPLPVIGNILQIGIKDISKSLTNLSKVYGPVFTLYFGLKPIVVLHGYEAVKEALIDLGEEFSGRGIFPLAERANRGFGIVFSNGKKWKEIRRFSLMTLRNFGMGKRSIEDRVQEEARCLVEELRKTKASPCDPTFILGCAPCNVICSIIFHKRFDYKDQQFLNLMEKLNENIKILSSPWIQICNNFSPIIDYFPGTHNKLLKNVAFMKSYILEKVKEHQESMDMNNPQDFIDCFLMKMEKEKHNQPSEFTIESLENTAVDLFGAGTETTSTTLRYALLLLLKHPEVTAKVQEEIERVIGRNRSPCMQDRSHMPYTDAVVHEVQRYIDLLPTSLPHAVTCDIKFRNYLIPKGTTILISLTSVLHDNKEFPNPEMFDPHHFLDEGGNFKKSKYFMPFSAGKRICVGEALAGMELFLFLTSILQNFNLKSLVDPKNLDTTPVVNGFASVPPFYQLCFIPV

Data set [1] has as its target hAT2 (Homo sapiens, UniProt P50052). Description: hAT2 receptor binding assay (SPA, [125I]-Sar1-Ile8-Angiotensin II). The settings on record: read-out: hAT2 IC50; membrane of HEK-293 cells overexpressing hAT2; 0.1 nM 125I ligand.
Data set [2] has as its system Caco-2 cells. Briefly: Two-way permeability study in Caco-2 cells.
Data set [3] addresses CYP2D6 (Homo sapiens, UniProt P10635). Description: Human liver microsome CYP inhibition experiment. It counts as in vitro ADME. The settings on record: read-out: Cytochrome P450 isoenzyme IC50 2D6; pooled human liver microsomes. The procedure: (§1) The research project used a specific probe substrate for each isoenzyme to evaluate the inhibitory effect of the test compound on human liver microsomal cytochrome P450 isoenzymes (CYPIA2. CYP2C9, CYP2C19, CYP2D6, and CYP3A4). Mixed human liver microsomes (pooled HLM, n≥50) were purchased from Corning Inc. (Steuben, N.Y., USA) or other qualified suppliers, and were stored in a refrigerator below −60° C. before use. The diluted series of to-be-tested compound working solutions were added to an incubation system containing cofactors of human liver microsomes, a probe substrate and a circulation system, and the methanol content was about 1% (v/v) of the final incubation system. A control containing no the to-be-tested compound and containing a solvent was used as a control for enzyme activity (100%). The concentration of the analyte in the sample was determined by liquid chromatography-tandem mass spectrometry (LC/MS/MS). The calculation was performed by using the average of the concentrations of the samples (a blank solvent, a positive control inhibitor, or the to-be-tested compound). Non-linear regression analysis was performed by using SigmaPlot (V.11) on the average percent activity of the compound to be tested to the concentration. The IC50 value was calculated by a three-parameter or four-parameter inflection logarithmic equation.

The target of data set [4] is CYP2C19 (Homo sapiens, UniProt P33261). Description: Human liver microsome CYP inhibition experiment. It is filed as in vitro ADME. The settings on record: read-out: Cytochrome P450 isoenzyme IC50 2C19; pooled human liver microsomes. The method, then:
as §1

For data set [5], the target named is CYP1A2 (Homo sapiens, UniProt P05177). Briefly: Human liver microsome CYP inhibition experiment. It is filed as in vitro ADME. Conditions: read-out: Cytochrome P450 isoenzyme IC50 CYP1A2; pooled human liver microsomes. The procedure: as §1
Data set [6] addresses CYP3A4 (Homo sapiens, UniProt P08684). Description: Human liver microsome CYP inhibition experiment. It is filed as in vitro ADME. Conditions: read-out: Cytochrome P450 isoenzyme IC50 3A4; pooled human liver microsomes. The method, then:
as §1

In data set [7] the target is CYP2C9 (Homo sapiens, UniProt P11712). Briefly: Human liver microsome CYP inhibition experiment. It is filed as in vitro ADME. The settings on record: read-out: Cytochrome P450 isoenzyme IC50 2C9; pooled human liver microsomes. The method, then:
as §1

Data set [8] is described as follows: Determination of kinetic solubility. The settings on record: pH 7.4, 24 hours at room temperature, theoretical maximum 200 μM.
The subject of data set [9] is human plasma. Description: Plasma protein binding rate (PPB) test, equilibrium dialysis. Conditions: 4 hours, 37°C.
For data set [10], the system named is SD Rat Plasma. The data set is described as above. The settings on record: 4 hours, 37°C.

Bounds are passed on as bounds.

For the molecule `Cc1ccc2c(c1OCc1ccccc1)C[C@@H](C(=O)O)N(C(=O)[C@@H](OC1CCCC1)c1ccccc1)C2`, the IC50 in [1] was 0.004 µM; in data set [3], above 50 µM; in data set [4] it was above 50 µM; in data set [5] it was above 50 µM; in data set [6], above 50 µM; in data set [7], 16 µM. Also, the Efflux ratio in data set [2] stood at 12.6. For the same molecule, the “Papp (AB)” value in data set [2] (A-B direction, 120 minutes) was 1.15 10^−6 cm/s. For the same molecule, the “Papp (BA)” value in data set [2] (B-A direction, 120 minutes) is 14.56 10^−6 cm/s. Besides, the “Solubility @pH = 7.4” value in data set [8] is reported as above 200.0 μM. For the same molecule, the “Plasma Protein Binding (%) Human Plasma” value in [9] was determined as 99.8%. For the same molecule, in [10], the “Plasma Protein Binding (%) SD Rat Plasma” value amounted to 99.9%.

As to `Cc1ccc2c(c1OCc1ccccc1)C[C@H](C(=O)O)N(C(=O)[C@@H](OC1CCCC1)c1ccccc1)C2`, in data set [1], the IC50 is 0.27 µM.
